Rows were chosen to be rich in hits. Some 1.5% of all compounds tested hit in one or more screens of this group.
MLLE-PAM2 inh – inhibitors of microRNA-mediated deadenylation, human PABP1 MLLE binding. P11940. GST-MLLE / FITC-PAM2 fluorescence polarization. inhibition, % at 20 µM. hit rate 0.36% among 360,000; in the data active = inhibition above about 35%, passing the limit was not always enough;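 also: plate controls were DMSO wells with GST-MLLE for no effect and wells lacking GST-MLLE protein for full effect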
UUG fidelity – alters start codon recognition fidelity in yeast; AID 602363; activity score, % at 18.7 µM; 350,000 tested, 0.13% active; S. cerevisiae UUG-firefly luciferase reporter, luminescence/redox ratio;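 active means replicate mean at a twofold rise or more, about +100% in these data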;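 further: firefly luciferase made from a UUG start codon reports start codon fidelity; reporter light over untreated wells divided by growth signal over untreated wells; some hits fall short of that in this replicate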
DSG3 Ab inh – human desmoglein-3 autoantibody binding inhibition; P32926; DSG3-coupled beads, scFv-anti-DSG3-GFP binding, flow cytometry; stronger effect = lower value; binding (percent of control), % at 10 µM; hit rate 0.48% among 310,000; AID 588358;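 active = binding more than 3 SD below its plate's average and above zero; inconclusive = below that plate limit but binding exactly zero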;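 also: hits lower antibody fragment binding to DSG3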
PABP FP inh – PABP-poly(A) binding inhibition | PABP-poly(A) RNA binding, fluorescence polarization | calls only at 35 µM | hit rate 1% among 290,000;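 also: calls also rest on retests at 20 µM and on dose response follow-up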
eIF4H FP inh – inhibitors of RNA binding by human eIF4H; AID 2012; inhibition, % at 35 µM; Q15056; eIF4H fluorescence polarization binding assay; hit rate 0.94% among 290,000;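 also: calls also rest on retests at 20 µM and on dose response follow-up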
The depositor's hits bear a star; i = inactive; ? = inconclusive; · = no result given; + = active, no number. Unless noted, no rule for the calls is given here.

entry | SMILES | MLLE-PAM2 inh | UUG fidelity | DSG3 Ab inh | PABP FP inh | eIF4H FP inh
1 | CCN1C(=O)[C@@H]2[C@@H](c3ccc(SC4CCCCC4)cc3)N3CCC[C@@]3(C(=O)OC)[C@@H]2C1=O | 40.2* | -14.6 | 112.1 | · | ·
2 | CCOC(=O)C1=C(N)n2c(s/c(=C\c3cccnc3)c2=O)=C(C(=O)OC)C1c1cccnc1 (configuration not stated) | -2.9 | -5.1 | 87.8* | · | ·
3 | COCC#Cc1ccc2c(c1)O[C@@H](CN(C)C(=O)C1CC1)[C@H](C)CN([C@H](C)CO)S2(=O)=O | · | -4.3 | · | · | ·
4 | N#Cc1c(-c2ccc(F)cc2)cc(-c2ccccc2)nc1SCC(=O)NCC(=O)O | 28.6 | · | 62.7* | i | 0.1
5 | CC[C@]12CCCN3CCc4c(n(c5ccccc45)C(=O)C1)[C@@H]32 | 7.3 | -2.5 | 107.2 | · | ·
6 | CCOC(=O)C1=C[C@]2(CC)CCCN3CCc4c(n1c1ccccc41)[C@@H]32 | -4.3 | -17.7 | 75.4* | i | 1.5
7 | CC(=O)NC[C@H]1[C@@H](c2ccc(-c3cccnc3)cc2)[C@H](CO)N1C(=O)C1CC1 | · | -6.0 | · | · | ·
8 | Cc1ccc(O)c(N)c1 | 1.6 | -35.7 | 102.2 | · | ·
9 | COc1ccc(O)c(N)c1 | · | 1.1 | · | + | 95.7*
10 | Cc1cccc(N2CCN(C(=O)c3ccccn3)CC2C)c1 (configuration not stated) | -5.6 | · | 125.6 | + | ?
11 | Oc1[nH]c(N=C2N=c3ccccc3=N2)c2ccccc12 | 13.4 | -32.0 | ? | + | 79.9*
12 | CCC(=O)Nc1ccc2c(c1)C(=O)N(C)C[C@@H](OC)[C@@H](C)CN(CCc1ccccc1)[C@H](C)CO2 | · | -7.3 | · | · | ·
13 | Cc1ccc(Cn2c(=S)[nH]c3ccc(N4CCOCC4)cc3c2=O)o1 | 14.2 | · | · | + | 72.4*
14 | CCCc1cn(CC[C@@H]2CC[C@@H](NC(=O)C3CCCC3)[C@@H](CO)O2)nn1 | · | -4.9 | · | · | ·
15 | Clc1ccc(NCc2cccnc2)cc1 | -16.9 | 5.1 | 95.4 | i | -4.3
16 | Fc1ccc(NCc2cccnc2)cc1F | 48.0* | · | 199.9 | ? | ?
17 | CCOC(=O)c1c(=O)n(O)c2ccc(C)cc2[n+]1[O-] | -54.5 | · | 97.2 | + | 103.5*
18 | C=CCOC(=O)/C(=C/c1ccco1)NC(=O)/C=C/c1ccccc1 | -9.4 | 38.1 | · | i | -2.0
19 | O=C(O)CNC(=O)/C(=C/c1ccco1)NC(=O)/C=C/c1ccccc1 | -4.9 | · | 97.2 | + | 53.2*
20 | C[C@@H]1CN([C@@H](C)CO)C(=O)c2cc(-c3ccncc3)cnc2O[C@H]1CN(C)C(=O)C1CC1 | · | -2.7 | · | · | ·
21 | COC(=O)c1c(C)[nH]c(C(=O)N2CCN(c3ccc(OC)cc3)CC2)c1C | · | · | · | + | ?
22 | O=c1c2ccccc2n2c(-c3ccc(F)cc3)nnc2n1Cc1ccccc1 | -14.5 | · | · | + | 52.8*
23 | Cc1noc(C)c1NC(=O)N(C)C[C@@H]1Oc2c(NC(=O)Nc3cccc4ccccc34)cccc2C(=O)N([C@@H](C)CO)C[C@@H]1C | · | -6.2 | · | · | ·
24 | C[C@@H]1CN([C@H](C)CO)C(=O)c2cccc(NS(=O)(=O)c3ccccc3)c2O[C@@H]1CN(C)C(=O)NC1CCCCC1 | · | 12.7 | · | · | ·
25 | CCCc1cc(=O)[nH]c(SCC(=O)N2CCN(S(=O)(=O)c3ccc4ccccc4c3)CC2)n1 | 3.5 | · | -2.3* | i | -9.1
26 | CCCc1cc(=O)[nH]c(SCC(=O)N2CCN(S(=O)(=O)c3ccccc3)CC2)n1 | 8.0 | · | 97.6 | i | -10.0
27 | CO[C@@H]1CN(C)C(=O)c2cc(NC(=O)C3CC3)ccc2OC[C@H](C)N(C(=O)Cc2ccccn2)C[C@@H]1C | · | 11.5 | · | · | ·
28 | O=C(CSc1ccc(-c2ccc(F)cc2)nn1)N1CCN(c2ccccc2)CC1 | 12.8 | -16.1 | 84.2* | i | -3.1
29 | Cc1ccc(/C=C/C(=O)c2ccccc(=O)c2O)cc1C | -9.7 | · | 94.8 | + | 66.1*
30 | O=C(/C=C/c1ccccc1)c1cc(Br)ccc(=O)c1O | -69.9 | 4.2 | 100.2 | + | 82.6*
31 | O=C(/C=C/c1ccc(F)cc1)c1cc(Br)ccc1O | 0.3 | 2.4 | 94.8 | i | -6.2
32 | CC(Cc1cccs1)NC(=S)Nc1ccc(F)cc1 (configuration not stated) | 4.2 | -15.4 | 103.0 | i | 7.0
33 | COc1ccc(NC(=S)NC(C)Cc2cccs2)cc1 (configuration not stated) | -47.8 | -25.8 | 81.1 | + | 107.8*
34 | O=C(C[C@@H]1CC[C@@H]2[C@H](COC[C@@H](O)CN2C(=O)Nc2ccc(C(F)(F)F)cc2)O1)NCCc1ccncc1 | · | -11.0 | · | · | ·
35 | COc1cc(OC)c(/C=N/NC(=O)c2ccc(NC(C)=O)cc2)cc1Br | -13.1 | · | 73.8* | i | 45.9
36 | COc1cc(OC)c(/C=N/NC(=O)c2ccncc2)cc1Br | -4.8 | · | 105.4 | i | -6.1
37 | Fc1ccc(-[n+]2nc(Nc3ccccc3)sc2-c2cccc(Cl)c2Cl)cc1 | 50.0* | -5.6 | 104.6 | i | -7.8
38 | Clc1cccc(-c2sc(Nc3ccccc3)n[n+]2-c2ccccc2)c1Cl | 15.6 | -14.6 | 109.5 | i | 0.7
39 | COCCN(CCOC)Cc1c(O)ccc2c1O/C(=C\c1ccco1)C2=O | 70.5 | 0.5 | 115.7 | + | 91.0*
40 | O=C1/C(=C/c2ccco2)Oc2c1ccc(O)c2CN1CCCCC1 | 69.9 | · | 99.1 | i | 99.7
41 | CCN1CCc2c(sc3c2c(NCc2ccco2)nc2nnnn23)C1 | -16.8 | -18.8 | 105.5 | + | 57.4*
42 | CC(C)c1ccc(NS(=O)(=O)c2ccc(-n3cccn3)cc2)cc1 | 14.7 | -8.3 | · | + | 87.5*
43 | C[C@H](CO)N1C[C@H](C)[C@@H](CN(C)C(=O)Nc2ccccc2)OCCCC[C@H](C)Oc2ccc(NS(=O)(=O)c3cn(C)cn3)cc2C1=O | · | 2.3 | · | · | ·
44 | COC(=O)C1C2C=CC3(CN(C(C)c4ccc(OC)cc4)C(=O)C13)O2 (configuration not stated) | -2.3 | -4.7 | 104.2 | + | active
45 | COc1ccc(C(C)N2CC34C=CC(O3)C(C(=O)O)C4C2=O)cc1 (configuration not stated) | 17.4 | -6.1 | 108.5 | i | -3.9

Just MLLE-PAM2 inh and UUG fidelity, for some of the entries so far:
entry	molecule	MLLE-PAM2 inh	UUG fidelity
43	C[C@H](CO)N1C[C@H](C)[C@@H](CN(C)C(=O)Nc2ccccc2)OCCCC[C@H](C)Oc2ccc(NS(=O)(=O)c3cn(C)cn3)cc2C1=O	·	2.3
44	COC(=O)C1C2C=CC3(CN(C(C)c4ccc(OC)cc4)C(=O)C13)O2 (configuration not stated)	-2.3	-4.7

(next part)
Each structure is followed by: MLLE-PAM2 inh | UUG fidelity | DSG3 Ab inh | PABP FP inh | eIF4H FP inh
46	COc1cccc(C#Cc2cnc3c(c2)C(=O)N([C@@H](C)CO)C[C@H](C)[C@H](CN(C)C(=O)C2CC2)O3)c1
    · | 16.5 | · | · | ·
47	Clc1cccc(Cl)c1C1Nc2cccc3cccc(c23)N1
    -31.7 | -8.5 | 99.4 | + | 98.8*
48	Fc1cccc(Cl)c1C1Nc2cccc3cccc(c23)N1
    -25.5 | -17.5 | 96.5 | + | 95.6*
49	CN(C)c1ccc(C2Nc3cccc4cccc(c34)N2)cc1
    -41.7 | 14.9 | 88.4 | i | 7.0
50	COc1ccc(C(=O)Nc2ccc3c(c2)C(=O)N(C)C[C@@H](OC)[C@@H](C)CN(C(C)=O)[C@H](C)CO3)cc1
    · | -2.0 | · | · | ·
51	CNC[C@H]1Oc2ccc(NC(=O)CCN3CCOCC3)cc2CC(=O)N([C@@H](C)CO)C[C@@H]1C
    · | -9.0 | · | · | ·
52	CC(=O)Nc1ccc2nc3ccccc3nc2c1
    41.6* | · | · | i | 34.7
53	O=C(Nc1ccc2nc3ccccc3nc2c1)c1ccc(Br)cc1
    -8.2 | -21.0 | 83.5 | i | 16.2
54	CCC(=O)N[C@H]1CC[C@H](CCn2cc(C3CC3)nn2)O[C@@H]1CO
    · | -1.0 | · | · | ·

Sorted by SMILES length (descending): part of the list above
Each structure is followed by: MLLE-PAM2 inh | UUG fidelity | DSG3 Ab inh | PABP FP inh | eIF4H FP inh
50	COc1ccc(C(=O)Nc2ccc3c(c2)C(=O)N(C)C[C@@H](OC)[C@@H](C)CN(C(C)=O)[C@H](C)CO3)cc1
    · | -2.0 | · | · | ·
54	CCC(=O)N[C@H]1CC[C@H](CCn2cc(C3CC3)nn2)O[C@@H]1CO
    · | -1.0 | · | · | ·
28	O=C(CSc1ccc(-c2ccc(F)cc2)nn1)N1CCN(c2ccccc2)CC1
    12.8 | -16.1 | 84.2* | i | -3.1
